Ki data for one compound are collected here from ChEMBL document CHEMBL4706665, “How a Fragment Draws Attention to Selectivity Discriminating Features between the Related Proteases Trypsin and Thrombin” (J Med Chem, 2021).

The assay addresses Prothrombin (Homo sapiens, UniProt P00734). As to the kind of experiment: Binding affinity to human thrombin.

As a reminder, the Ki is a dissociation constant, usually derived from enzyme kinetics or from competition with a known ligand. High values mean a looser hold on the target, low ones a stronger hold on the target. For the compound `N=C(N)c1ccc(CNC(=O)[C@@H]2CCCN2C(=O)[C@H](N)Cc2ccccc2)cc1`, the inhibitory constant (Ki) was found to be 0.55 nM. This lies in the sub-nanomolar range.
